# AlphaSeq binding of Ab-14 light chain variants to a spike HR2 peptide

Target: peptide PDVDLGDISGINAS, taken from heptad repeat 2 (HR2) of SARS-CoV-2 spike.

Parent scFv Ab-14: VH joined to VL by a (GGGGS)3 linker. Changes lie in the light chain CDRs alone.
VH: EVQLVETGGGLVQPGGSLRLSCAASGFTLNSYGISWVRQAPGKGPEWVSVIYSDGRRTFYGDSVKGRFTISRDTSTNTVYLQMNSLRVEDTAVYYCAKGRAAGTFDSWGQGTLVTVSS
VL: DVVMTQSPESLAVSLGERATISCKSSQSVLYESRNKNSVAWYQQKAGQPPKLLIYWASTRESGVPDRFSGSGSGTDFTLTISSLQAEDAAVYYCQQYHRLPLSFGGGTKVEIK

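Designed CDR sequences, proposed from the first random library and measured here. Their group label is 14L_En_Gibbs (En: ensemble of fine-tuned language models; Gibbs: Gibbs sampling). In AlphaSeq, yeast of one mating type display the scFv and yeast of the other type display the target. Pairs that bind mate more often; barcode pairs of the diploids are counted by sequencing. Read counts were normalised to the haploid input and turned into Kd by a linear fit to BCL2-family pairs of known affinity, for each replicate. There are six technical replicates.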

Variants are written as CDR1, CDR2 and CDR3 of the light chain (limits as in the source). Parent: KSSQSVLYESRNKNSVA, WASTRES, QQYHRLPLS.
Affinities are written as log10 Kd with Kd in nM; a lower number is a better binder.
The mean shown is taken over the replicates in which the pair was detected.
"ND" means that the variant was in the library but no mating with the target was seen in that replicate; the authors take this as a sign of poor binding, and no number exists.
The authors' rule: three or more of the six replicates give a measured affinity, fewer mean a poor binder.
A sequence measured in both rounds can read differently, since the two assays cover different ranges.
The parent sequence was in this pool as ten entries: three were never detected, three once, and four in most replicates, with averages from 0.34 to 2.37.
Empty control strains, which show no peptide, gave a signal in 4% of pairings with all light chain designs; the median was 2.64 and 95% of these signals were weaker than 1.59. No background was subtracted. For each scFv, signals with the empty controls are counted beside the result, with their mean in brackets.

CDR-L1	CDR-L2	CDR-L3	log10 Kd, replicates	log10 Kd (nM), mean	control signals
RIRESMGYSHEGRRNIA	QAQIREI	QQYSQLPLF	0.33 0.10 0.56 0.22 0.33 0.59	0.35	1 of 18 (2.65)
NMFDKDYAFDNNEYNIA	ERTTRGL	QQYSRLPLT	0.24 0.32 0.08 0.10 0.16 0.90	0.30	0 of 18
VMFMGLYWQNDEHQAIA	NVTMREK	QQYHRLPLQ	ND ND ND ND ND ND	ND	1 of 18 (2.36)
KLDYLNGEMDIGGDSIA	EVSTAGM	QQYIRLPLS	2.09 1.88 2.03 1.47 1.85 1.92	1.87	2 of 18 (2.38)
MMTVGDDMNTGHQNSVA	HAEIKEL	QQYFSLPLI	ND 2.11 1.73 2.41 2.08 3.62	2.39	1 of 18 (2.03)
RIMPQLNVEGKNRNAVA	DGKEQVI	QHYARLPLS	1.76 2.35 1.87 1.97 1.90 1.61	1.91	0 of 18
RFDLHVKEIETIESAVA	NTSVRAD	QSYDRLPLS	ND 0.79 ND ND ND ND	0.79	1 of 18 (0.90)
KLDMNELGQSQNSSHVA	GSANKCQ	QQYSRLPLS	0.31 0.22 0.29 0.38 0.49 0.51	0.37	0 of 18
HVGQTRQADISNKKSVA	EGEVLID	QQYGRLPFS	0.48 0.23 0.19 0.18 0.30 0.32	0.28	2 of 18 (2.13)
RIDDYPNMLGKNKESIA	EAALTLT	QQYARLPLS	0.56 0.88 0.81 0.98 1.01 1.42	0.94	1 of 18 (1.73)
HIQDAEGGLSSQWNSVA	STEERSD	QSYHRLPLS	0.40 0.69 0.92 0.79 1.08 1.00	0.81	0 of 18
TLMHHQDYQDEIKKSIA	NAIIKER	QQYSRLPLA	ND ND ND 1.72 ND ND	1.72	0 of 18
RLTQQMYGFNIHANAIA	SGAERQW	QQYARLPLS	ND 1.68 ND ND ND ND	1.68	0 of 18
YMSMYLDMQDSIQCGVA	DATVRNA	QQYQRLPLS	2.02 2.20 2.29 1.79 1.73 1.94	1.99	0 of 18
TLAQGIYEGVRKSENVA	EASHVTD	QQYERLPLE	0.59 0.80 0.72 0.78 0.46 0.92	0.71	2 of 18 (3.00)
MLTMFANENAGKSSNIA	DTNNLNT	QQYQRLPFM	0.52 0.28 0.24 0.29 0.13 0.66	0.35	1 of 18 (2.06)
NLPMKELQMSWNVNNVA	DSEQRMK	QQYSRLPLM	0.65 0.69 0.66 0.46 0.47 0.69	0.60	2 of 18 (3.17)
KITSHIREGTADNNAMA	NADVSNE	QQYSRLPLF	0.99 0.71 0.59 0.47 0.48 0.70	0.66	1 of 18 (3.98)
NVNVSEDQWPSSKNAIA	QTTCRNL	QQYAHLPLS	0.68 0.63 0.33 0.32 0.80 0.42	0.53	2 of 18 (2.89)
SVFMELAEEKASTRSIA	DASMRLA	QQYVRLPLG	0.37 0.00 -0.19 0.06 -0.11 0.20	0.06	0 of 18
AIAGTLHFNQSGGSNVA	EVQMREQ	QQYFRLPLG	1.44 0.75 1.44 1.27 1.10 1.55	1.26	0 of 18
KIELDLTRYNNGYSAIA	GETQKAN	QQYSRLPLV	0.36 0.60 0.25 0.35 0.23 0.57	0.39	1 of 18 (2.00)
NLGQKMALETEQRNSIA	DSTVRED	QQYSRIPLI	2.40 2.07 2.11 1.80 2.17 2.21	2.13	0 of 18
SIQFYTENFAEWGQSIA	DVSATTA	QQYHRLPLA	0.10 1.44 0.87 ND 1.55 1.02	1.00	0 of 18
MLALPQKELGYAKDAVA	DGSIRLG	QQYHRLPLT	ND 1.89 1.20 0.81 0.86 1.19	1.19	1 of 18 (2.00)
HLHTIMYTENIGTNSIA	DANLHVD	QQYFRLPIS	0.48 0.50 0.03 0.09 0.06 0.66	0.30	1 of 18 (2.84)
KLSLVLGVSKQVEKNIA	NERLKIA	QQYDRLPLT	1.54 0.88 1.48 1.09 1.17 1.39	1.26	0 of 18
SLTAHHQEAKSAENSVA	EAVMLES	QQYHQLPLM	ND 1.47 1.84 2.67 2.28 2.27	2.10	1 of 18 (2.12)
SFPSEMDQQQTQVNSVA	GEQHTAR	QQYGRLPLS	1.82 2.17 2.38 2.74 2.03 1.94	2.18	2 of 18 (3.40)
ILMQPYKELGAAKNNIA	DGSIRLD	QQYHRLPLV	0.69 0.57 0.58 0.57 0.96 0.88	0.71	0 of 18
HVKEDLNMGMKFQSSVA	SGAHRED	QQYYRLPLG	0.45 0.26 0.26 -0.12 0.09 0.46	0.23	0 of 18
KISTQIPEFEMWDNAIA	GATLRPT	QHYARLPLS	ND ND ND ND ND ND	ND	0 of 18
HLSLPWQLGHPSTNAVA	NMSTLMT	QQYSRLPLS	0.60 0.65 0.25 0.18 0.19 0.37	0.37	3 of 18 (3.33)
ILAEASDDITEKQNSIA	ETQQVYS	QQYHRLPLA	1.91 1.64 1.55 1.50 1.69 1.74	1.67	1 of 18 (2.97)
KAQLDHQGQPRNHNSIA	EGISRTT	QQYFRLPLM	0.37 0.54 0.16 -0.07 -0.48 0.35	0.15	0 of 18
QMYPFEVAKGEGTNNVA	HVSVRAL	QQYFRLPLV	0.80 2.27 2.17 1.28 0.82 1.24	1.43	0 of 18
KLYDEATNRVGTAENIA	EKEISLQ	QQYHRLPLS	1.14 1.14 2.81 0.54 1.04 1.06	1.29	1 of 18 (1.67)
RLQEDNQLGTNIGNNIA	EHQTVFD	QQYAHLPLQ	1.28 1.13 2.25 1.20 1.42 2.07	1.56	1 of 18 (2.84)
HLNLEYMQMMKDHNSIA	DTEHKTP	QQYFRLPIS	0.21 0.36 -0.13 0.35 -0.30 0.45	0.16	0 of 18
VFQEYVQGVEQDYNNIA	ENSYASR	QQYFRLPLA	ND ND ND ND ND ND	ND	0 of 18
MISNEQDYNYSATNSVA	DVTEKCN	QQYKRLPLT	ND 0.35 0.85 0.31 0.48 1.14	0.63	0 of 18
QLNHYKHETMAKTQNIA	DMTIRED	QQYAHLPLA	0.46 0.35 0.36 0.27 0.12 0.32	0.31	0 of 18
NFYMSAAEFVNEDSSIA	DAEISYD	QQYHRLPLV	2.20 1.62 1.90 ND 1.51 1.99	1.84	0 of 18
KFQQESNNMNDNQNSVA	EESMVQY	QHYWRLPLT	1.43 ND ND ND ND 1.29	1.36	1 of 18 (1.76)
KLMEQFGHSMDHANNIA	EVDMLAQ	QQYMHLPLI	0.45 0.25 0.21 0.01 0.20 0.37	0.25	0 of 18
QIALAYEEVGHQDNSIA	DETVKPA	QQYLRLPLH	ND ND ND 1.36 2.55 2.76	2.22	0 of 18
NLTTGYRQGALNTDSVA	HGNMRCA	QQYYRLPLS	0.38 -0.12 0.41 -0.09 0.30 0.20	0.18	0 of 18
SLTVSDNYGSQLENNIA	QGVCKAE	QQYIRLPLI	2.40 1.74 1.92 2.05 1.00 2.91	2.00	0 of 18
KLQTLTYTANIGESSVA	DANVHVD	QQYFRLPLS	0.35 0.00 0.38 0.50 0.28 0.19	0.28	0 of 18
QFESHEEEGYQYSNNIA	NGEQRFS	QQYVKLPLV	1.19 1.12 0.64 0.96 0.44 1.29	0.94	1 of 18 (1.53)
MFALYQDSMGDAKKSIA	DRNTKAH	QQYSKLPLV	0.79 0.70 0.56 0.51 0.61 0.73	0.65	0 of 18
GVDHTMYSAQEAPNSIA	NAEQTNI	QQYARLPLS	ND ND 1.14 1.04 0.59 ND	0.93	0 of 18

For reference, 6 entries of the list once more:

| CDR-L1 | CDR-L2 | CDR-L3 | log10 Kd, replicates | log10 Kd (nM), mean | control signals |
|---|---|---|---|---|---|
| HVGQTRQADISNKKSVA | EGEVLID | QQYGRLPFS | 0.48 0.23 0.19 0.18 0.30 0.32 | 0.28 | 2 of 18 (2.13) |
| RIRESMGYSHEGRRNIA | QAQIREI | QQYSQLPLF | 0.33 0.10 0.56 0.22 0.33 0.59 | 0.35 | 1 of 18 (2.65) |
| SFPSEMDQQQTQVNSVA | GEQHTAR | QQYGRLPLS | 1.82 2.17 2.38 2.74 2.03 1.94 | 2.18 | 2 of 18 (3.40) |
| KLYDEATNRVGTAENIA | EKEISLQ | QQYHRLPLS | 1.14 1.14 2.81 0.54 1.04 1.06 | 1.29 | 1 of 18 (1.67) |
| SVFMELAEEKASTRSIA | DASMRLA | QQYVRLPLG | 0.37 0.00 -0.19 0.06 -0.11 0.20 | 0.06 | 0 of 18 |
| KLSLVLGVSKQVEKNIA | NERLKIA | QQYDRLPLT | 1.54 0.88 1.48 1.09 1.17 1.39 | 1.26 | 0 of 18 |

Values reported by Li et al. 2023, doi:10.1038/s41467-023-39022-2 (FLAb copy).